Assay results from paper PMC4537131, “Bispyridinium Compounds Inhibit Both Muscle and Neuronal Nicotinic Acetylcholine Receptors in Human Cell Lines” (2015).

Amino acid sequences for entries named in this document (tags omitted). Residues count along the entry.
UniProt P22303, 32-617 isoform 2 limits assumed: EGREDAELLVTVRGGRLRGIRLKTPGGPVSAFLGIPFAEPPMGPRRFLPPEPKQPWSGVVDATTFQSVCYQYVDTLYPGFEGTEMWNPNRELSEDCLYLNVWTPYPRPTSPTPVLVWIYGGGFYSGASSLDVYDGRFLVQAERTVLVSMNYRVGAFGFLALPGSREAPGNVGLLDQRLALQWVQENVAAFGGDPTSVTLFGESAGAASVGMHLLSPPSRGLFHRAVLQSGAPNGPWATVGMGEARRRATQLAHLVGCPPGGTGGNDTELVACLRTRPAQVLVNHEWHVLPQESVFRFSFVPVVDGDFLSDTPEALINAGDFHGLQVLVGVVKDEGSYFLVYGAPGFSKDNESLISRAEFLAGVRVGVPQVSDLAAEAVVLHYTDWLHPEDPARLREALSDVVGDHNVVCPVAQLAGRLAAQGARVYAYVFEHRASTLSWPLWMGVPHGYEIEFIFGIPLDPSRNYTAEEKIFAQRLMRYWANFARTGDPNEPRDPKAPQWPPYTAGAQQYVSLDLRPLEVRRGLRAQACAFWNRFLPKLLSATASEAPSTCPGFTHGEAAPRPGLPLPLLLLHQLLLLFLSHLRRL

tested on: mice; assay: not given; conditions: dibromide salt variants of the MB compounds, tested form: diiodide; cited from earlier work

Row | Structure (SMILES) | LD50 iv mice [mg/kg]
1 | c1cc[n+](CCCCC[n+]2ccccc2)cc1 | 32
2 | c1cc[n+](CCC[n+]2ccccc2)cc1 | 180
3 | c1cc[n+](CCCCCCCCCC[n+]2ccccc2)cc1 | 15
4 | c1cc[n+](CC[n+]2ccccc2)cc1 | 225
5 | c1cc[n+](CCCC[n+]2ccccc2)cc1 | 55
6 | c1cc[n+](CCCCCC[n+]2ccccc2)cc1 | 26

tested on: human muscle nicotinic receptor (CN21 cells); assay: Nicotinic calcium response assay in CN21 cells (Fluo-4, FlexStation); conditions: ACh 10 μM with atropine 20 μM, value is log10 of IC50, mean ± SEM, tested form: diiodide

Row | Structure (SMILES) | Log IC50 (M), inhibition of nicotinic response [M]
7 | c1cc[n+](CCCCCCCCCC[n+]2ccccc2)cc1 | -6.05 ± 0.17
8 | c1cc[n+](CC[n+]2ccccc2)cc1 | -2.06 ± 0.04
9 | c1cc[n+](CCCCCCCC[n+]2ccccc2)cc1 | -5.30 ± 0.20
10 | c1cc[n+](CCCCCCCCC[n+]2ccccc2)cc1 | -5.94 ± 0.11
11 | c1cc[n+](CCCC[n+]2ccccc2)cc1 | -2.51 ± 0.15
12 | c1cc[n+](CCCCCCC[n+]2ccccc2)cc1 | -4.81 ± 0.23
13 | c1cc[n+](CCCCCC[n+]2ccccc2)cc1 | -3.50 ± 0.32

same assay, conditions: ACh 10 μM, mean ± SEM, tested form: diiodide

Row | Structure (SMILES) | Hill slope
14 | c1cc[n+](CCCCC[n+]2ccccc2)cc1 | -0.60 ± 0.13
15 | c1cc[n+](CCC[n+]2ccccc2)cc1 | -0.73 ± 0.06
16 | c1cc[n+](CCCCCCCCCC[n+]2ccccc2)cc1 | -1.34 ± 0.14
17 | c1cc[n+](CC[n+]2ccccc2)cc1 | -0.75 ± 0.06
18 | c1cc[n+](CCCCCCCC[n+]2ccccc2)cc1 | -0.99 ± 0.07
19 | c1cc[n+](CCCCCCCCC[n+]2ccccc2)cc1 | -1.56 ± 0.11
20 | c1cc[n+](CCCC[n+]2ccccc2)cc1 | -0.72 ± 0.05
21 | c1cc[n+](CCCCCCC[n+]2ccccc2)cc1 | -0.72 ± 0.01
22 | c1cc[n+](CCCCCC[n+]2ccccc2)cc1 | -0.50 ± 0.02

same assay, conditions: ACh 10 μM, mean ± SEM, tested form: diiodide, listed as C9

Row | Structure (SMILES) | Hill slope
23 | c1cc[n+](CCCCCCCCC[n+]2ccccc2)cc1 | -1.5

same assay, conditions: ACh 10 μM, mean ± SEM, tested form: diiodide, listed as C10

Row | Structure (SMILES) | Hill slope
24 | c1cc[n+](CCCCCCCCCC[n+]2ccccc2)cc1 | -1.5

tested on: neuronal nicotinic receptor (SH-SY5Y cells); assay: Nicotinic calcium response assay in SH-SY5Y cells (fura-2, Fluostar Optima); conditions: nicotine 50 μM, mean ± SEM, tested form: diiodide

Row | Structure (SMILES) | Hill slope
25 | c1cc[n+](CCCCC[n+]2ccccc2)cc1 | -2.10 ± 0.40
26 | c1cc[n+](CCCCCCCCCC[n+]2ccccc2)cc1 | -1.28 ± 0.09
27 | c1cc[n+](CCCCCCCC[n+]2ccccc2)cc1 | -1.74 ± 0.22
28 | c1cc[n+](CCCCCCCCC[n+]2ccccc2)cc1 | -1.66 ± 0.20
29 | c1cc[n+](CCCC[n+]2ccccc2)cc1 | -1.81 ± 0.26
30 | c1cc[n+](CCCCCCC[n+]2ccccc2)cc1 | -1.80 ± 0.30
31 | c1cc[n+](CCCCCC[n+]2ccccc2)cc1 | -1.88 ± 0.24

same assay, conditions: nicotine 50 μM, value is log10 of IC50, mean ± SEM, tested form: diiodide

Row | Structure (SMILES) | Log IC50 (M), inhibition of nicotinic response [M]
32 | c1cc[n+](CCCCC[n+]2ccccc2)cc1 | -4.01 ± 0.04
33 | c1cc[n+](CCCCCCCCCC[n+]2ccccc2)cc1 | -5.78 ± 0.03
34 | c1cc[n+](CCCCCCCC[n+]2ccccc2)cc1 | -4.76 ± 0.03
35 | c1cc[n+](CCCCCCCCC[n+]2ccccc2)cc1 | -5.38 ± 0.04
36 | c1cc[n+](CCCC[n+]2ccccc2)cc1 | -3.27 ± 0.04
37 | c1cc[n+](CCCCCCC[n+]2ccccc2)cc1 | -4.43 ± 0.05
38 | c1cc[n+](CCCCCC[n+]2ccccc2)cc1 | -4.54 ± 0.04

target: human acetylcholinesterase (Homo sapiens, UniProt P22303); assay: Acetylcholinesterase inhibition assay (modified Ellman, erythrocyte ghosts); conditions: read-out: AChE IC50, 5 min incubation, pH 7.4, 37°C, tested form: diiodide

Row | Structure (SMILES) | IC50 [µM]
39 | c1cc[n+](CCCCC[n+]2ccccc2)cc1 | 700
40 | c1cc[n+](CCC[n+]2ccccc2)cc1 | > 1000
41 | c1cc[n+](CCCCCCCCCC[n+]2ccccc2)cc1 | 0.5
42 | c1cc[n+](CC[n+]2ccccc2)cc1 | > 1000
43 | c1cc[n+](CCCCCCCC[n+]2ccccc2)cc1 | 1.4
44 | c1cc[n+](CCCCCCCCC[n+]2ccccc2)cc1 | 0.2
45 | c1cc[n+](CCCC[n+]2ccccc2)cc1 | > 1000
46 | c1cc[n+](CCCCCCC[n+]2ccccc2)cc1 | 20
47 | c1cc[n+](CCCCCC[n+]2ccccc2)cc1 | 70

same assay, conditions: read-out: AChE IC50, 5 min incubation, pH 7.4, 37°C, tested form: diiodide, listed as C9

Row | Structure (SMILES) | IC50 [µM]
48 | c1cc[n+](CCCCCCCCC[n+]2ccccc2)cc1 | < 1

same assay, conditions: read-out: AChE IC50, 5 min incubation, pH 7.4, 37°C, tested form: diiodide, listed as C10

Row | Structure (SMILES) | IC50 [µM]
49 | c1cc[n+](CCCCCCCCCC[n+]2ccccc2)cc1 | < 1

same assay, conditions: value is log10 of IC50, tested form: diiodide

Row | Structure (SMILES) | Log AChE IC50 (M)
50 | c1cc[n+](CCCCC[n+]2ccccc2)cc1 | -3.15
51 | c1cc[n+](CCC[n+]2ccccc2)cc1 | >-3
52 | c1cc[n+](CCCCCCCCCC[n+]2ccccc2)cc1 | -6.30
53 | c1cc[n+](CC[n+]2ccccc2)cc1 | >-3
54 | c1cc[n+](CCCCCCCC[n+]2ccccc2)cc1 | -5.85
55 | c1cc[n+](CCCCCCCCC[n+]2ccccc2)cc1 | -6.70
56 | c1cc[n+](CCCC[n+]2ccccc2)cc1 | >-3
57 | c1cc[n+](CCCCCCC[n+]2ccccc2)cc1 | -4.70
58 | c1cc[n+](CCCCCC[n+]2ccccc2)cc1 | -4.15
